Reference: patent US20230102223A1, “PHARMACEUTICAL COMPOSITIONS WITH ANTIFLAVIVIRAL ACTIVITY” (HEALTH RESEARCH, INC., priority 2016, published 2023)

Tested on: DENV2

## CN(C)c1ccc2nc3ccc(=[N+](C)C)cc-3sc2c1 [Methylene blue, [7-(dimethylamino)phenothiazin-3-ylidene]-dimethylazanium;chloride]
  Therapeutic index (TI) (CC50/EC50): >50
